Experiments:
[1] = 20 mg in 3 mL of DMSO, ethanol, DMF and acetone
[2] = test system: mouse macrophage RAW 264.7; conditions: RAW 264.7, 24 h, FIP solution less than 1000 μg/mL

| Substance | solubility in solvent phase [1] | cell apoptosis / cell survival [2] |
| --- | --- | --- |
| amphiphilic imiquimod-grafted lauryl γ-polyglutamate [γ-PGA-R837-LA] | dissolved completely | – |
| fluorescein-labeled amphiphilic imiquimod-grafted lauryl γ-polyglutamate [FIP] | dissolved completely | no cell apoptosis was observed |

From patent US20240293537A1, “A[…]-GRAFTED LAURYL GAMMA-POL[…] USE THEREOF” (JIANGSU ACADEMY OF AGRICULTURAL SCIENCES, priority 2021, published 2024)
